The values that follow come from patent US20030175810A1, “Assay method and system for identification of P2Y receptor agonists and antagonists” (priority 2000, published 2003).

The chains behind the UniProt entries cited, without tags or fusion partners.
UniProt P08172, whole entry: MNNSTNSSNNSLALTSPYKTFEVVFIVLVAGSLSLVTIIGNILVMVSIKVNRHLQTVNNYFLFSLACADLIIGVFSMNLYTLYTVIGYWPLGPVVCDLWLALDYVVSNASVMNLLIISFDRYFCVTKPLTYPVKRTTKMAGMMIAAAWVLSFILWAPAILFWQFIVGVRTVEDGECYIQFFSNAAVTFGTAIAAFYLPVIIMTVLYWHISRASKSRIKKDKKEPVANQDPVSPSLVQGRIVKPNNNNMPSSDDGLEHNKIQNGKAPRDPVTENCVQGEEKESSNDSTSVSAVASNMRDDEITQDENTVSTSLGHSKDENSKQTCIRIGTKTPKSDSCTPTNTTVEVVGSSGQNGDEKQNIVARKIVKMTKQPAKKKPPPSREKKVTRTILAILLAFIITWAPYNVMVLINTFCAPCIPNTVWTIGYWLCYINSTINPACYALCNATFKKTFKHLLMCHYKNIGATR

The test concerns the target m2-muscarinic receptors (Homo sapiens, UniProt P08172). In words: GTPase activity of vesicles reconstituted with purified m2-muscarinic receptors and Gαo. It is filed as biochemical.

Regarding `C[N+](C)(C)CCOC(N)=O` [carbachol], the “stimulation of GTPase activity” value is “marked stimulation”.
